## Antibody variant affinities, Ab-14 light chain, assay B

Target peptide (SARS-CoV-2 spike, HR2 region): PDVDLGDISGINAS

The variants keep the heavy chain, the linker and the frameworks of Ab-14 (scFv order VH, the linker GGGGSGGGGSGGGGS, VL).
VH: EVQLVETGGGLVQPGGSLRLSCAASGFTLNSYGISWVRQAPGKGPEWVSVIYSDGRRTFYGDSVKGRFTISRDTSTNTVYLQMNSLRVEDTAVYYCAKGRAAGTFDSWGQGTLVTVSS
VL: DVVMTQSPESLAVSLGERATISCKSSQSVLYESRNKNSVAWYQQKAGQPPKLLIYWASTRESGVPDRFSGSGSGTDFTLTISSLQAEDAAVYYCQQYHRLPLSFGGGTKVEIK

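The parent was found by panning a naive human phage display library on the peptide. This is the validation round: designs drawn from the data on random variants, tested in the same kind of assay. Their group label is 14L_GP_Gen (GP: Gaussian process model; Gen: genetic algorithm; a sequence that several methods proposed may carry one label only). The scFvs were displayed on barcoded MATa yeast, the peptide on MATalpha yeast. Mating (16 h, 30 °C) was followed by selection of diploids and sequencing of their barcodes. Scores were corrected for input abundance and mapped to Kd with protein pairs of known affinity run in the same pool. The assay was run in six technical replicates.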

Positions count from residue 1 of the parent VL; S25F puts F in place of S. Numbers give log10(Kd / nM), so 0 is 1 nM and 3 is 1 µM. Smaller is tighter. Replicates are averaged; those with no signal do not enter the mean. Of ten entries with the parent sequence, four were seen in most replicates (averages 0.34 to 2.37), three in one and three in none, so single entries are noisy. The range of this assay differs from that of the first round, and the authors advise against merging the two. As a blank, each scFv also met three strains without target: over all light chain designs, 4% of these pairings were detected, typically at 2.64 and seldom below 1.59. The control count says in how many pairings with the empty strains this scFv gave a signal, with their mean in brackets. The authors averaged sequences with at least three values out of six and counted those with two or fewer as poor binders.

changes,"log10 Kd, replicates",mean log10 Kd (nM),signal with controls
S25F+S26Y+V29Q+W56N,-0.12 / -0.30 / -0.36 / -0.40 / -0.31 / -0.08,-0.26,2/18 (2.68)
S25L+S26R+V29W+W56N+T59Q,-0.36 / -0.17 / -0.32 / -0.49 / -0.20 / -0.13,-0.28,0/18
S25L+Q27P+W56G,-0.61 / -0.56 / -0.40 / -0.58 / -0.55 / -0.33,-0.50,0/18
S25L+S26E+W56N+E61C,-0.10 / -0.09 / -0.32 / -0.44 / -0.30 / -0.13,-0.23,3/18 (1.80)
S25V+S26Q+S38A+W56E,-0.12 / -0.13 / 0.12 / -0.16 / -0.29 / -0.31,-0.15,0/18
S25L+S26Q+V29W+W56N+T59K,0.05 / 0.08 / -0.10 / -0.20 / 0.11 / 0.09,0.01,0/18
S25M+V29W+S38N+W56N,-0.09 / -0.32 / -0.47 / -0.47 / -0.33 / -0.42,-0.35,0/18
S25L+N37Q+W56E,-0.32 / -0.27 / -0.05 / -0.74 / -0.57 / -0.17,-0.35,0/18
S25L+Q27W+V29E+W56N+E61M,-0.02 / -0.13 / -0.07 / -0.49 / -0.28 / -0.16,-0.19,2/18 (3.10)
S25L+V29M+W56N+S62Q,-0.05 / 0.07 / -0.15 / -0.30 / -0.27 / -0.04,-0.12,1/18 (2.95)
S25L+S26E+Y31Q+W56N,-0.35 / -0.47 / -0.45 / -0.72 / -0.57 / -0.34,-0.48,0/18
S25L+V29W+N35V+W56N+T59Q,0.37 / 0.19 / 0.32 / -0.04 / 0.28 / 0.65,0.30,0/18
S25L+V29H+K36S+W56D,0.24 / 0.13 / 0.03 / -0.05 / -0.05 / -0.08,0.04,0/18
S25L+S26Q+S38A+W56G,-0.20 / -0.21 / -0.37 / -0.41 / -0.23 / -0.09,-0.25,2/18 (3.20)
S25L+S26Q+L30M+W56N,-0.22 / -0.22 / -0.21 / -0.45 / -0.48 / -0.14,-0.29,1/18 (2.65)
S25L+V29W+W56N+S62D+Q96D,-0.34 / 0.08 / -0.46 / -0.27 / -0.13 / -0.10,-0.21,0/18
S25F+V29T+W56N+T59Q,0.45 / 0.26 / 0.13 / 0.59 / 0.22 / 0.29,0.32,0/18
S25L+S26P+V29Y+W56N+E61L,-0.35 / -0.41 / -0.44 / -0.57 / -0.41 / -0.14,-0.39,3/18 (2.95)
S25L+Q27G+V29F+W56G,-0.21 / -0.37 / -0.29 / -0.49 / -0.23 / -0.15,-0.29,1/18 (4.74)
S25L+S26E+V29D+W56E,-0.07 / -0.04 / -0.07 / -0.19 / -0.04 / 0.16,-0.04,1/18 (2.61)
V29W+W56N+T59Q+E61L,-0.28 / -0.53 / -0.20 / -0.65 / -0.41 / -0.54,-0.43,0/18
S25F+Y31M+W56D,-0.07 / -0.06 / -0.15 / -0.35 / -0.17 / -0.01,-0.14,3/18 (4.23)
S25L+Q27T+W56D,-0.05 / -0.17 / -0.31 / -0.38 / -0.20 / -0.12,-0.21,0/18
S25L+W56E+E61L+S62M,-0.23 / -0.15 / -0.36 / -0.43 / -0.23 / -0.19,-0.27,0/18
S25F+V29Y+W56N+T59Y,-0.20 / -0.40 / -0.44 / -0.37 / -0.56 / -0.18,-0.36,2/18 (2.80)
S25V+V29F+W56E+Q96D,-0.01 / 0.18 / -0.14 / -0.19 / -0.22 / 0.11,-0.04,2/18 (3.06)
K24F+S25L+W56E,0.64 / 0.49 / 0.52 / 0.25 / 0.44 / 0.70,0.51,1/18 (2.98)
S25V+V29E+S33E+W56N+T59Q,0.12 / 0.23 / 0.02 / 0.14 / 0.02 / 0.14,0.11,2/18 (2.32)
S25L+V29W+W56E+Q96D,-0.04 / 0.16 / -0.11 / 0.21 / -0.15 / 0.01,0.01,2/18 (2.08)
S25L+S33E+K36G+W56N,-0.02 / -0.24 / -0.33 / -0.39 / -0.26 / -0.22,-0.24,2/18 (2.46)
S25L+V29N+W56N+T59Q,-0.72 / -0.73 / -0.70 / -0.65 / -0.51 / -0.03,-0.56,1/18 (1.77)
S25I+W56G,-0.65 / -0.33 / -0.74 / -0.72 / -0.54 / -0.34,-0.55,0/18

The opening 2 entries, copied out:

changes	log10 Kd, replicates	mean log10 Kd (nM)	signal with controls
S25F+S26Y+V29Q+W56N	-0.12 / -0.30 / -0.36 / -0.40 / -0.31 / -0.08	-0.26	2/18 (2.68)
S25L+S26R+V29W+W56N+T59Q	-0.36 / -0.17 / -0.32 / -0.49 / -0.20 / -0.13	-0.28	0/18

The measurements come from Li et al. 2023 (doi:10.1038/s41467-023-39022-2) through the FLAb antibody collection.